According to PMC8670751 (Science immunology, 2021):

Target: T1, HLA-DQ2.5:DQ2.5-glia-α2, recombinant soluble pMHC (Homo sapiens, HLA-DQ2.5 …, strain)
T1 chain 1: not shown
T1 chain 2: not shown
Assay: SPR

B1: Fab 3.C11 (Fab, V domains shown)
VH: QVQLVQSGAEVKKPGSSVKVSCKASGGTVRSRVHAISWVRQAPGQGLEWMGGIIPIFGTANYAQKFQGRVTITADESTSTAYMELSSLRSEDTAVYYCARDVQRMGMDVWGQGTTVTVSS
VL: DIQMTQSPSSVSTSVGDRVTITCRASQDISNWLAWYQQKPGKAPKLLIYDSSTLQSGVPSRFSGSGSGTDFTLTISTLQPEDFATYYCQQFNSYPLTFGGGTKVDIK
B1 showed a Kd of 0.088 ± 0.008 nM.
